Laboratory results published in patent US11370795B2, “Process for the synthesis of 6-[(3S,4S)-4-methyl-1-(pyrimidin-2-ylmethyl)pyrrolidin-3-yl]-3-tetrahydropyran-4-yl-7H-imidazo[1,5-a]pyrazin-8-one” (Imara Inc., priority 2017, dated 2022).

Assay: Blood Brain Barrier penetration (plasma and brain concentration)
Type: in vivo
Settings: mouse

Kp at 0.5 h (30 min, read-out: Brain/Plasma ratio after 30 minutes): 0.41
Kp at 2 h (120 min, read-out: Brain/Plasma ratio after 120 minutes): 0.41
Structure (SMILES): C[C@@H]1CN(Cc2ncccn2)C[C@H]1c1nc2c(cnn2C2CCOCC2)c(=O)[nH]1 (relative stereo)
